The values that follow come from PubChem BioAssay AID602168 (The Scripps Research Institute Molecular Screening Center, 2012).

Sequences of proteins named here, by UniProt entry; tags and fusion partners are left off. A change or cut given only in a name is not applied to a line headed by its entry.
UniProt Q15788: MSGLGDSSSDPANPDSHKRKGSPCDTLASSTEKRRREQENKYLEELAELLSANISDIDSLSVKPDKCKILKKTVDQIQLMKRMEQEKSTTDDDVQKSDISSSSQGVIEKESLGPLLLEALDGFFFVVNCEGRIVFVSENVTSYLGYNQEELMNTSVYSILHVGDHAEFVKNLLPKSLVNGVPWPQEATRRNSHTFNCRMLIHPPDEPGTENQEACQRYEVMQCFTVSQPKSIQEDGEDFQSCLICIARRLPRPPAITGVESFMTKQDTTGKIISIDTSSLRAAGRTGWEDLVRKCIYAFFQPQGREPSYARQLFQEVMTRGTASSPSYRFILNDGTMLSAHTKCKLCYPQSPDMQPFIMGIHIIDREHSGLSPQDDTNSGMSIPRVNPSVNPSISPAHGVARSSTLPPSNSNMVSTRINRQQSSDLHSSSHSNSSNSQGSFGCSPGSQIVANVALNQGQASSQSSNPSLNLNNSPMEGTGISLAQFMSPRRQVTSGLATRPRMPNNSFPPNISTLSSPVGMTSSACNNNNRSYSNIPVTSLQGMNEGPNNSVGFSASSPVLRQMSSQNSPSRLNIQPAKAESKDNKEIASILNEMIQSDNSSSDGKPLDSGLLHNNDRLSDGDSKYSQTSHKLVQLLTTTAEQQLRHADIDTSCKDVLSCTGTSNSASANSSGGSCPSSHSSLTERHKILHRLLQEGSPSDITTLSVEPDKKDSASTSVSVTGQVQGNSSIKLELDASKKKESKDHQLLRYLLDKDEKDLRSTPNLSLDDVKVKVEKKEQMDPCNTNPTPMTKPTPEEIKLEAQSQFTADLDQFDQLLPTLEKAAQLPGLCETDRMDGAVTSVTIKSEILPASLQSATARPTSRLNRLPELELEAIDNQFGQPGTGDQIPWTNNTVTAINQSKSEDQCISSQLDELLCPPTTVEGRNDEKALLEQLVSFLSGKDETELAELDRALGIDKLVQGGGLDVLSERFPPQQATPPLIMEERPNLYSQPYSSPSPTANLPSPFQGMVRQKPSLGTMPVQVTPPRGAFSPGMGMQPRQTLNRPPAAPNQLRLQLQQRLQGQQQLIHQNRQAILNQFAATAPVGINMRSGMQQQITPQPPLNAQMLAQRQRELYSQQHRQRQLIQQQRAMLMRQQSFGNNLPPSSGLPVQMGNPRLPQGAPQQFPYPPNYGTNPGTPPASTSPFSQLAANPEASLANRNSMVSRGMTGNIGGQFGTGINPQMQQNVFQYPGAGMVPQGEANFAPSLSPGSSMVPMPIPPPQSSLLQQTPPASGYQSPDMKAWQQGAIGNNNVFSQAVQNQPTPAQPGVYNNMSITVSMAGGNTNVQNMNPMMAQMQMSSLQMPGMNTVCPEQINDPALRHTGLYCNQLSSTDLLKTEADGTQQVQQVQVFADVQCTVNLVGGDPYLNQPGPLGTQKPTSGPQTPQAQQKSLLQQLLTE

The assay addresses Nuclear receptor coactivator 1 (Homo sapiens) (UniProt Q15788). In words: NCOA1 reporter inhibition potency – cell-based, luminescence, counter-screen for SRC3 inhibitor project, dose response (AID 602168). The following applies: Cell-based SRC1 luciferase reporter. (A counterscreen serves to expose hits that act by an unwanted route or on another target.)

SMILES strings stand for the structures. Activity calls are given as the source filed them. The rule behind the calls is not given here. A value given as a limit tells only on which side of the number the result lay.

The IC50 is the concentration that gives 50% inhibition. Regarding `COc1cc([C@@H]2c3cc4c(cc3[C@@H](O[C@@H]3O[C@@H]5CO[C@@H](C)O[C@H]5[C@H](O)[C@H]3O)[C@H]3COC(=O)[C@H]23)OCO4)cc(OC)c1O`, the IC50 was inactive: > 12 µM.
